Reference: paper PMC11171933, “Rapid Determination of Kinetic Constants for Slow-Binding Inhibitors and Inactivators of Human Histone Deacetylase 8” (International Journal of Molecular Sciences, 2024)

Columns and labels:
human HDAC8 = molecular target: T1, human HDAC8 (Homo sapiens, UniProt Q9BY41); assay: Time-dependent fluorometric HDAC8 enzyme activity assay (dose-response curves after different pre-incubation times)
T1 sequence (Q9BY41 1-377): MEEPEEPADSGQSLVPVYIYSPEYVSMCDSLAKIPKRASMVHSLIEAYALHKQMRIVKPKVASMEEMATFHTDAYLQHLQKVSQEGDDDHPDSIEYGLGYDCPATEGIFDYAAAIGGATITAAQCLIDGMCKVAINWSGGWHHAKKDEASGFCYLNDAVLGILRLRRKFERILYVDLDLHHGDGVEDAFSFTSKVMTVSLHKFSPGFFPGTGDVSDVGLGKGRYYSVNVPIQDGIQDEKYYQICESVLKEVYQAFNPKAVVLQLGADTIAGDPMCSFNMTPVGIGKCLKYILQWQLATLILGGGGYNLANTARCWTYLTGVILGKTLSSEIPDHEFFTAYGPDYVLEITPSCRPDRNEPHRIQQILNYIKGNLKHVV

EGFR = EGFR inhibitor; cited from earlier work

| Structure (SMILES) | IC50 (human HDAC8) | residence time (RT) (EGFR) |
| --- | --- | --- |
| O=C(CCCCCCC(=O)Nc1ccccc1)NO [SAHA, suberoylanilide hydroxamic acid] | 0.9 ± 0.2 µM | – |
| CS(=O)(=O)CCNCc1ccc(-c2ccc3ncnc(Nc4ccc(OCc5cccc(F)c5)c(Cl)c4)c3c2)o1 [lapatinib] | – | 7.2 h |
